Values of other authors as cited in patent US10632150B1, “Potassium phosphates composition for injection” (CMP Development LLC, priority 2018, dated 2020).

Conditions: reported value

solubility in water: about 900 mg/mL
Substance: potassium dibasic phosphate [KDP]
